Here are results for one molecule from patent publication US20070149508A1, “Six membered heteroaromatic inhibitors targeting resistant kinase mutations” (TargeGen, Inc., priority 2005, published 2007).

Sequences of proteins named here, by UniProt entry; tags and fusion partners are left off.
UniProt P00519, whole entry: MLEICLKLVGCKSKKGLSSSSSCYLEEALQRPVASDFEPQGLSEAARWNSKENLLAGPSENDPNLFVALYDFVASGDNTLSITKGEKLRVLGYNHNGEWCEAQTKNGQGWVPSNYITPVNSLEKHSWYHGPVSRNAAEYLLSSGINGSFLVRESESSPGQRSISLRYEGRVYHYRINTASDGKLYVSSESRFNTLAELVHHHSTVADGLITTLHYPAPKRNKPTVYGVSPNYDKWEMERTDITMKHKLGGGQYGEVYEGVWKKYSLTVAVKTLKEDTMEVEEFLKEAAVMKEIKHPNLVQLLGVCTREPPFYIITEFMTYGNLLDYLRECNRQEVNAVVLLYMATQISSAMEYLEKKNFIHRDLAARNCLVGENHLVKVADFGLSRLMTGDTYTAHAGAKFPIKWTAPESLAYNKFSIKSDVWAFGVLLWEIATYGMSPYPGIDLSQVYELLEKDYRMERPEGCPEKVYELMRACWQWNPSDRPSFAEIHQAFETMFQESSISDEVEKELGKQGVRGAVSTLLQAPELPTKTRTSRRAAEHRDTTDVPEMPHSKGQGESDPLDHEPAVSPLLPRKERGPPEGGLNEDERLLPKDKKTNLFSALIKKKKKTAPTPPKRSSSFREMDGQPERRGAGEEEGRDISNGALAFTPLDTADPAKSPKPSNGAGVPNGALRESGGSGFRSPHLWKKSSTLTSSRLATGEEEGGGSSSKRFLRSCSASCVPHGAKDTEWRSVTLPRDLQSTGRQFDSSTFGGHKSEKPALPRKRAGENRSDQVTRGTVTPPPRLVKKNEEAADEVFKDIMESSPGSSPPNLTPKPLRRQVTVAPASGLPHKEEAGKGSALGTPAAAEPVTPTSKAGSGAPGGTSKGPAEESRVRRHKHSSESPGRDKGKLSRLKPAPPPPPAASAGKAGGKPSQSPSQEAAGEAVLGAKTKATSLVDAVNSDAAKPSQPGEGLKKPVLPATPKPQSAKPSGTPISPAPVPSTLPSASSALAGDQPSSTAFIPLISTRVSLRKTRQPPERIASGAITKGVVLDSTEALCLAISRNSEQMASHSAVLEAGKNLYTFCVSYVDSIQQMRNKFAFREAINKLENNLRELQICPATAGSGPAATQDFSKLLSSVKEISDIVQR

By IC50 is commonly meant the concentration that gives 50% inhibition. A high value points to lower potency.

Structures can show the parent of a compound that is named as a salt.

This assay addresses Abl kinase (Homo sapiens, UniProt P00519). Nature of the assay: biochemical. To be noted: Abl IC50 (nM), Abl kinase (Invitrogen, 20 ng/well), Abltide 100 μM, ATP 500 nM, 37° C. for 60 minutes, top concentration 10 uM.

Molecule `O=S(=O)(c1ccc(Nc2ncc(/C=C/c3cccc(CO)c3)cn2)cc1)C1CCNCC1` [(3-((E)-2-(2-(4-(piperidin-4-ylsulfonyl)phenylamino)pyrimidin-5-yl)vinyl)phenyl)methanol hydrochloride] returned an IC50 of 73 nM.
